The list shows a part of the results, in another mix than the full data. Where a structure was tested more than once in an assay, its records may differ in their call. Some salts and complexes are drawn in separate pieces, as the source files them; their charges need not balance. Activity calls are given as the source filed them. Cut-off read from the data, not from the text of the source: active = growth inhibition above about 70%; inactive = the rest.
Key:
[1] = NCI Yeast Anticancer Drug Screen. Data for the rad50 strain (AID 155);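 note: 0% = growth of vehicle-only cultures of the same strain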; settings: S. cerevisiae rad50 strain growth inhibition, active compounds read high
[2] = NCI Yeast Anticancer Drug Screen. Data for the mec2-1 strain (AID 157); settings: S. cerevisiae mec2-1 strain, active compounds read high
[3] = NCI Yeast Anticancer Drug Screen. Data for the sgs1 mgt1 strain (AID 161);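 note: 0% = growth of cultures given vehicle only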; settings: S. cerevisiae sgs1 mgt1 strain, active compounds read high
[4] = NCI Yeast Anticancer Drug Screen. Data for the cln2 rad14 strain (AID 165);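 note: 0% = growth equal to vehicle treated cultures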; settings: S. cerevisiae cln2 rad14 strain, active compounds read high
[5] = NCI Yeast Anticancer Drug Screen. Data for the bub3 strain (AID 167); settings: S. cerevisiae bub3 mutant strain, active compounds read high
[6] = NCI Yeast Anticancer Drug Screen. Data for the mlh1 rad18 strain (AID 175); settings: S. cerevisiae mlh1 rad18 strain growth inhibition, active compounds read high
[7] = NCI Yeast Anticancer Drug Screen. Data for the rad18 strain (AID 177); settings: S. cerevisiae rad18 mutant growth inhibition, active compounds read high
Procedure, shortened: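 Vehicle-treated cultures served as the baseline for scoring compound-induced growth inhibition in DNA-repair-mutant yeast.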

[8] = at 5.0 µM (retest, dose inferred, filed as 0.5)
[9] = at 50.0 µM (retest, dose inferred, filed as 5.0)

Measured: growth inhibition

[Au+].[N-]=[N+]=N.c1ccc([PH+](c2ccccc2)c2ccccc2)cc1
active: [1]; at 3.7 µM 96% | [1]; [8] 91% | [1]; at 11.0 µM 97% | [1]; at 33.0 µM 89% | [1]; at 100.0 µM 84% | [2]; at 3.7 µM 95% | [2]; [8] 97% | [2]; at 11.0 µM 97% | [2]; at 33.0 µM 93% | [2]; [9] 98% | [2]; at 100.0 µM 89% | [3]; [8] 78% | [4]; [8] 76% | [5]; at 33.0 µM 95% | [5]; at 100.0 µM 91% | [6]; [8] 79%
inactive: [1]; at 1.2 µM 3% | [1]; at 50.0 µM 37.5% | [2]; at 1.2 µM 36% | [2]; at 50.0 µM 6.75% | [3]; at 50.0 µM 20.6% | [4]; at 50.0 µM 8.3% | [5]; at 1.2 µM 2% | [5]; at 3.7 µM 2% | [5]; [8] -3% | [6]; at 50.0 µM 24.7%

Cc1ccccc1[As]=O (centres undefined)
active: [1]; [8] 94% | [1]; [9] 99% | [1]; at 50.0 µM 99.3% | [2]; [8] 98% | [2]; [9] 99% | [2]; at 50.0 µM 99.5% | [3]; [8] 96% | [3]; [9] 99% | [3]; at 50.0 µM 99% | [4]; [8] 85% | [4]; [9] 99% | [4]; at 50.0 µM 98.8% | [5]; [8] 90% | [5]; [9] 99% | [5]; at 50.0 µM 99% | [6]; [8] 97% | [6]; [9] 99% | [6]; at 50.0 µM 99%

CCC1CCCCCCC1[S+](C)CC.O=[N+]([O-])c1cc([N+](=O)[O-])c(S(=O)(=O)[O-])c([N+](=O)[O-])c1
inactive: [1]; [8] 3% | [1]; [9] 22% | [1]; at 50.0 µM 52.2% | [2]; [8] 10% | [2]; [9] 42% | [2]; at 50.0 µM 27.6% | [3]; [8] -8% | [3]; [9] 55% | [3]; at 50.0 µM 61.8% | [4]; [8] -6% | [4]; [9] 21% | [4]; at 50.0 µM 56% | [5]; [8] 0% | [5]; [9] 35% | [5]; at 50.0 µM 46.9% | [6]; [8] 23% | [6]; [9] 52% | [6]; at 50.0 µM 26.6%

COc1ccccc1N.O=[N+]([O-])c1cc([N+](=O)[O-])cc([N+](=O)[O-])c1
inactive: [1]; at 1.2 µM -1% | [1]; at 3.7 µM 7% | [1]; [8] 10% | [1]; at 11.0 µM 53% | [2]; at 1.2 µM -2% | [2]; at 3.7 µM 10% | [2]; [8] 18% | [2]; at 11.0 µM 54% | [3]; [8] 27% | [4]; [8] -1% | [5]; at 1.2 µM -4% | [5]; at 3.7 µM 4% | [5]; [8] 24% | [6]; [8] 30%
active: [1]; at 33.0 µM 99% | [1]; [9] 99% | [1]; at 50.0 µM 99.8% | [1]; at 100.0 µM 99% | [2]; at 33.0 µM 99% | [2]; [9] 100% | [2]; at 50.0 µM 99.8% | [2]; at 100.0 µM 99% | [3]; [9] 99% | [3]; at 50.0 µM 99.8% | [4]; [9] 98% | [4]; at 50.0 µM 99.5% | [5]; at 11.0 µM 71% | [5]; at 33.0 µM 99% | [5]; [9] 97% | [5]; at 50.0 µM 99.9% | [5]; at 100.0 µM 99% | [6]; [9] 99% | [6]; at 50.0 µM 86.3%

O=[N+]([O-])c1cc([N+](=O)[O-])c(-c2ccccc2)c([N+](=O)[O-])c1
active: [1]; [9] 99% | [1]; at 50.0 µM 99.4% | [2]; [9] 99% | [2]; at 50.0 µM 99.3% | [3]; [9] 99% | [3]; at 50.0 µM 99.5% | [4]; [9] 99% | [4]; at 50.0 µM 97.5% | [5]; [9] 99% | [5]; at 50.0 µM 99.1% | [6]; [9] 99% | [6]; at 50.0 µM 99.3%
inactive: [1]; [8] 6% | [2]; [8] 7% | [3]; [8] 7% | [4]; [8] -1% | [5]; [8] 1% | [6]; [8] 12%

[N-]=[N+]=Nc1c([N+](=O)[O-])cc([N+](=O)[O-])cc1[N+](=O)[O-]
inactive: [1]; [8] 3% | [2]; [8] -8% | [2]; at 50.0 µM 29.4% | [3]; [8] 10% | [4]; [8] -2% | [4]; at 50.0 µM 35.8% | [5]; [8] 5% | [6]; [8] 32%
active: [1]; [9] 94% | [1]; at 50.0 µM 96.5% | [2]; [9] 95% | [3]; [9] 96% | [3]; at 50.0 µM 93.5% | [4]; [9] 82% | [5]; [9] 94% | [5]; at 50.0 µM 71.3% | [6]; [9] 98% | [6]; at 50.0 µM 96.8%

Nc1ccccc1.O=[N+]([O-])c1cc([N+](=O)[O-])cc([N+](=O)[O-])c1
active: [1]; at 33.0 µM 98% | [1]; [9] 99% | [1]; at 50.0 µM 99.6% | [1]; at 100.0 µM 98% | [2]; at 33.0 µM 99% | [2]; [9] 100% | [2]; at 50.0 µM 99.7% | [2]; at 100.0 µM 99% | [3]; [9] 99% | [3]; at 50.0 µM 99.8% | [4]; [9] 99% | [4]; at 50.0 µM 96.8% | [5]; at 33.0 µM 98% | [5]; [9] 99% | [5]; at 50.0 µM 99.2% | [5]; at 100.0 µM 99% | [6]; [9] 99% | [6]; at 50.0 µM 85.1% | [7]; at 33.0 µM 99% | [7]; at 100.0 µM 99%
inactive: [1]; at 1.2 µM -2% | [1]; at 3.7 µM 4% | [1]; [8] 16% | [1]; at 11.0 µM 45% | [2]; at 1.2 µM 1% | [2]; at 3.7 µM 6% | [2]; [8] 23% | [2]; at 11.0 µM 42% | [3]; [8] 34% | [4]; [8] 7% | [5]; at 1.2 µM -2% | [5]; at 3.7 µM 2% | [5]; [8] 25% | [5]; at 11.0 µM 43% | [6]; [8] 27% | [7]; at 1.2 µM 1% | [7]; at 3.7 µM 8% | [7]; at 11.0 µM 69%

Reference: PubChem BioAssay (NCI)
